From US9683053B2

Target: scFv(anti-HER2)-BT beta chain (Artificial Sequence)
Experiment: co-expression of three chains, protein-A, scanning densitometry of non-reduced SDS-PAGE

Substance: VH(anti-EGFR)-CH1-BT alpha chain with VL(anti-EGFR)-CK chain
- hetero-dimerization rate: 49.5%
